From patent US9018211B2, “Inhibitors of the renal outer medullary potassium channel” (Merck Sharp & Dohme Corp., priority 2009, dated 2015)

The chains behind the UniProt entries cited, without tags or fusion partners.
UniProt P48048, whole entry, species assumed: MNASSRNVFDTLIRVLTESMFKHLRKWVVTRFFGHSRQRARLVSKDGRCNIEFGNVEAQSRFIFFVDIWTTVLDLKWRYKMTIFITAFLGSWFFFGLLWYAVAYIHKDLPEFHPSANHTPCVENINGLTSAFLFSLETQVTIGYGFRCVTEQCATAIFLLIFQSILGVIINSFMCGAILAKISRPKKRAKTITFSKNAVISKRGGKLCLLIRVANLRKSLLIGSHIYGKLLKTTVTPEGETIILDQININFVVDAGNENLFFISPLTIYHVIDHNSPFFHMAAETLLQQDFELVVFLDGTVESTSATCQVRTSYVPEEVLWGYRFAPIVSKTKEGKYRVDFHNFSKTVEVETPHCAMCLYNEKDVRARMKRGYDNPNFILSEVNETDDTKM

What was measured:
Assay type in all cases: cell-based
[1] = biological target: hROMK (hKir1.1) (Homo sapiens (Human), UniProt P48048); experiment: Thallium Flux Assay; conditions: HEK293 cells stably expressing hROMK; FLIPR-Tetra, 30 min incubation
[2] = biological target: hROMK1 (Kir1.1) (Homo sapiens (Human), UniProt P48048); experiment: 86Rb+ Efflux Assay; conditions: CHO-DHFR- cells stably expressing hROMK1; 35 min incubation
[3] = biological target: Kir1.1 (ROMK1) (Homo sapiens (Human), UniProt P48048); experiment: ROMK Electrophysiology Assay (IonWorks Quattro whole cell voltage clamp); conditions: Chinese hamster ovary cells stably expressing Kir1.1; block at voltage step to 0 mV, 6 min compound incubation

| Structure (SMILES) | IC50 [1] [nM] | IC50 [2] [nM] | IC50 [3] [nM] |
| --- | --- | --- | --- |
| Cc1c([C@@H](O)CN2CCN(C[C@H](O)c3ccc4c(c3C)COC4=O)CC2)ccc2c1COC2=O [Example 2A, 5,5′-{piperazine-1,4-diylbis[(1R)-1-hydroxyethane-2,1-diyl]}bis(4-methyl-2-benzofuran-1 (3H)-one)] | 6 | 68 |  |
| Cc1c([C@H](O)CN2CCN(C[C@@H](O)c3ccc4c(c3C)COC4=O)CC2)ccc2c1COC2=O [Example 2B, 5,5′-{piperazine-1,4-diylbis[(1S)-1-hydroxyethane-2,1-diyl]} bis(4-methyl-2-benzofuran-1 (3H)-one)] | 29 | 171 | 12 |
| Cc1c([C@H](O)CN2CCN(C[C@H](O)c3ccc4c(c3C)COC4=O)CC2)ccc2c1COC2=O [Example 2C, 5-((1R)-1-hydroxy-2-{4-[(2S)-2-hydroxy-2-(4-methyl-1-oxo-1,3-dihydro-2-benzofuran-5-yl)ethyl]piperazin-1-yl}ethyl)-4-methyl-2-benzofuran-1(3H)-one] | 11 | 107 | 10 |
